## AlphaSeq binding of Ab-14 heavy chain variants to a spike HR2 peptide

The target is the same throughout: PDVDLGDISGINAS, from the HR2 region of SARS-CoV-2 spike.

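The parent was found by panning a naive human phage display library on the peptide. These sequences belong to a second round, designed from the earlier measurements on random variants of the parent. Group labels follow the data file (Ctrl: baseline library sampled from a position-specific scoring matrix, with some repeated check sequences; Rand: our label for a block that the file lists under HC and that is probably the random mutants of the ten best first-round binders; En: ensemble of fine-tuned language models; GP: Gaussian process model; GPLM: also part of the Gaussian process libraries; HC: hill climbing; Gen: genetic algorithm; Gibbs: Gibbs sampling; a sequence that several methods proposed may carry one label only). The scFvs were displayed on barcoded MATa yeast, the peptide on MATalpha yeast. Pairs that bind mate more often; barcode pairs of the diploids are counted by sequencing. Each replicate has its own calibration line, from reference interactions of the BCL2 family. The assay was run in six technical replicates.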

Parent scFv Ab-14: VH joined to VL by three GGGGS repeats. Changes lie in the heavy chain CDRs alone.
VH: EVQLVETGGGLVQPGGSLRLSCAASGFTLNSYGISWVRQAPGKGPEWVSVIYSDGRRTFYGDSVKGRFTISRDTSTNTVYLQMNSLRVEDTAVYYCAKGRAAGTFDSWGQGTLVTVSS
VL: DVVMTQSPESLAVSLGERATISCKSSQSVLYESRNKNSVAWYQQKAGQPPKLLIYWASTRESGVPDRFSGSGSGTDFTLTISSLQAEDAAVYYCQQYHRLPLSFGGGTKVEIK

Each variant is given by its three heavy chain CDRs, as the data file delimits them; those of the parent are GFTLNSYGIS, VIYSDGRRTFYGDSVK, GRAAGTFDS.
Variants here have at most six changes.
Each Kd is an estimate from the mating assay, the geometric mean of the replicates in which the pair was seen; lower is stronger.
"no signal" means that the variant was in the library but no mating with the target was seen in any replicate; the authors take this as a sign of poor binding, and no number exists.
Values of this round are not directly comparable with the first-round values of the same sequences.

For GFDLNSYGIS | VIYSDGRRTFYSDSVK | GHAAGTFDS [GP_HC], the assay gave 1.5 nM (6 of 6 replicates; controls 1 of 18). The variant GFTLWSYGIS | VIYSDGRRTFYGDSVK | GRAAGTFDS [Ctrl] gave no signal (0 of 6 replicates; controls 0 of 18). With GFTLESYGIS | VIYSDGRRTFYGDSVK | GQAAGTFDK [GP_Gen] the result was 59 nM (3 of 6 replicates; controls 1 of 18). The variant GFTLNEYGIS | VIYSDGRRTFYGDSVK | GMAAGTFDL [GP_HC] gave 1.4 nM (6 of 6 replicates; controls 1 of 18). The variant GFTLNEYGIS | VIYSDGRRTFYTDSVK | GTAAGTFDL [GP_HC] gave 300 pM (6 of 6 replicates; controls 0 of 18). With GFHLNSYGIS | VIYSDGRRTFYQDSVK | GKVAGTFDS [GP_Gibbs] the result was 23 nM (6 of 6 replicates; controls 0 of 18). For GFDLNSYGIS | VIYSDGRRTFYIDSVK | GREAGTFDM [GP_HC], the assay gave 680 pM (6 of 6 replicates; controls 0 of 18). The variant GFALNSYGIS | VIYSDGRRTFYGDSVK | RRAAGTFDS [Ctrl] showed no signal (0 of 6 replicates; controls 0 of 18). For GFTLNSPGIS | VIYSDGRRTFYGDSVK | GRAAGTFDS [Ctrl], the assay gave no signal (0 of 6 replicates; controls 0 of 18).

With GFSLNSYGIS | VIYSDGRRTFYDDSVK | GKEAGTFDS [GP_Gen] the result was 500 pM (6 of 6 replicates; controls 0 of 18). The variant GFTLNSYGIS | VIYADGRRTFYGDSVK | GRAAGTPKS [Rand] gave no signal (0 of 6 replicates; controls 0 of 18). The variant GFTLNEYGIS | VIYSDGRRTFYQDSVK | GRFAGTFDS [GPLM_HC] gave 27 nM (5 of 6 replicates; controls 0 of 18). The variant GFSLNSYGIS | VIYSDGRRTFYADQVK | GRAAGTFDS [GPLM_Gen] showed 3.9 nM (6 of 6 replicates; controls 0 of 18). The variant GFDLNDYGIS | VIYADGRRTFYADSVK | GEAAGTFDL [En_HC] gave 22 nM (5 of 6 replicates; controls 0 of 18). The variant GFHLNSYGIS | VIYSDGRRTFYQDSVK | GREAGTFDT [GP_Gen] gave 7.2 nM (5 of 6 replicates; controls 0 of 18). The variant GFTLNQYEIS | VIYSDGRRTAYSDSVK | GRAAGFFDS [Rand] gave no signal (0 of 6 replicates; controls 1 of 18). The variant GFNLNEYGIS | VIYSDGRRTFYGDSVK | GKAAGTFDS [GPLM_Gen] gave 1.1 nM (6 of 6 replicates; controls 0 of 18). With GFTLNSYGIS | VIYSDGRRTEYGDSVK | GKAAGTFDS [Ctrl] the result was 80 nM (6 of 6 replicates; controls 0 of 18).

With GFTLNSYGIS | VIYSDGRRNFYTDSVK | GRLAGTFDS [Ctrl] the result was 77 nM (3 of 6 replicates; controls 1 of 18). The variant GFTLNSYGIS | VIYADGRRTFYDDSVK | GRAAGLFDS [Ctrl] gave no signal (0 of 6 replicates; controls 0 of 18). With GFTLNDYGIS | VIYSDGMRTFYGDSVK | GREAGTFDS [Ctrl] the result was 5.7 nM (3 of 6 replicates; controls 0 of 18). With GFTLDSYGIS | VIYSDGRRTFYGDSVK | GQAAGTFDS [Ctrl+GP_HC] the result was 37 nM (8 of 12 replicates; controls 2 of 36). The variant HFDLNSYGIS | VIYSDGRRTFYGDSVK | GKTAGTFDS [GP_Gen] showed 5.4 nM (6 of 6 replicates; controls 1 of 18). With GFTLNSYGIS | VIYADGRRTAYGDSVK | GRAAGTFDS [Ctrl] the result was 800 pM (6 of 6 replicates; controls 2 of 18). The variant GFSLNSYGIS | VIYSDGERTFYCDSVK | GRAAGTFDS [GP_HC] gave 73 nM (5 of 6 replicates; controls 0 of 18). For GFQLNSYGIS | VIYSDGRRTFYIDSVK | GWAAGTFDS [GP_Gibbs], the assay gave 47 nM (4 of 6 replicates; controls 0 of 18). With KFKLNSYGIS | VIYSDGRRTEYGDSVK | GRAAGTFDS [Ctrl] the result was 29 nM (1 of 6 replicates; controls 0 of 18).

With GFTLNSYGIS | VIYSDGKRTFYGDSVK | GQVAGTFDT [GP_Gibbs] the result was 3.2 nM (6 of 6 replicates; controls 0 of 18). With GFTLKSYGIS | VIYSDGRRTFYGDSVK | GRAAVTFDQ [GP_HC] the result was no signal (0 of 6 replicates; controls 0 of 18). The variant GFSLNSYGIS | VIYSDGRRTFYGDHVK | GRTAGTFDS [GPLM_Gen] gave 1.3 nM (2 of 6 replicates; controls 1 of 18). The variant GFTLNEYGIS | VIYSDGRRTFYGDSVK | GRSAGTFDT [GPLM_Gen] gave 37 nM (4 of 6 replicates; controls 1 of 18). The variant GFHLNSYGIS | VIYSDGRRTFYGDSVK | GRLAGTFDS [Ctrl+GP_Gibbs] gave 29 nM (6 of 12 replicates; controls 1 of 36). For GFALNEYGIS | VIYSDGRRTFYGDSVK | GRNAGTFDS [GPLM_Gen], the assay gave 1.5 nM (6 of 6 replicates; controls 0 of 18). The variant GFSLNMYGIS | VIYSDGRRTQYSDSVK | GRAAGTFDS [GP_HC] gave 19 nM (6 of 6 replicates; controls 0 of 18). The variant GFTLNEYGIS | VIYADGRRTFYGDSVK | GRTAGTFDS [GP_Gibbs] gave 230 pM (6 of 6 replicates; controls 1 of 18). For GFTLNEYGIS | VIYSDGRRTFYGDSVK | TRAAGTFDS [Ctrl], the assay gave no signal (0 of 6 replicates; controls 0 of 18).

For GFTLNEYGIS | VIYSDGRRDFYGDSVK | GRAAGTFPS [Ctrl], the assay gave no signal (0 of 6 replicates; controls 0 of 18). For GFTLNDYGIS | VIYSDGRRTWYIDSVK | GRAAGTFWS [GP_HC], the assay gave no signal (0 of 6 replicates; controls 0 of 18). The variant GFTLDQYGIS | VIYADGRRTFYGDAVK | GRATGTFDS [Ctrl] gave 270 nM (1 of 6 replicates; controls 0 of 18). The variant GFTLNSYGIS | VIYSDGRRTFYSDRVK | GQAAGTFDT [GP_Gibbs] showed 190 nM (6 of 6 replicates; controls 0 of 18). With GFDLNSYGIS | VIYSDGRRTFYGDSVK | GQAAGTFDM [GP_Gen] the result was 9.6 nM (6 of 6 replicates; controls 2 of 18). The variant GFNLNSYGIS | VIYSDGRRTFYGDQVK | GRAAGTFDS [Ctrl] gave no signal (0 of 6 replicates; controls 0 of 18). For GFTLNDYGIS | VIYSDGRRTFYGDSVK | GQTAGTFDK [GP_Gibbs], the assay gave 2.7 nM (6 of 6 replicates; controls 0 of 18). The variant GFDLNEYGIS | VIYADGRRTFYSDSVK | GEVAGTFDS [En_HC] gave 250 pM (6 of 6 replicates; controls 0 of 18). With GFELNDYGIS | VIYSDGRRTYYGDSVK | GRAAGTFDS [GP_HC] the result was 34 nM (6 of 6 replicates; controls 0 of 18).

The variant GFTLNSYGIS | VIYSDGRRTFYGDSTK | GRAAGAFDS [Ctrl] showed no signal (0 of 6 replicates; controls 0 of 18). With GFTLNSYGIS | VIYSDGRRTFYSDSVK | GRAGGTFDS [En_HC] the result was 100 nM (3 of 6 replicates; controls 0 of 18). With GFTLESYGIS | VIYSDGRRTFYDQSVK | GRSAGTWDS [Ctrl] the result was no signal (0 of 6 replicates; controls 0 of 18). With GFTLNSYGIS | VIYSDGRRTFYSDSVK | GRWAGTFDS [Ctrl+GPLM_HC] the result was 15 nM (8 of 12 replicates; controls 0 of 36). With GFTLNSYGIS | VIYSDGRRTFYSDSYK | GRAAGAFDS [Ctrl] the result was no signal (0 of 6 replicates; controls 0 of 18). For GFTLNSQGIS | VIYSDGRRTFYIDSVK | GQAAGTFDS [Ctrl], the assay gave 21 nM (4 of 6 replicates; controls 0 of 18). For GFSLNSYGIS | VIYSDGRRTFYSDSVK | GKAGGTFDS [GPLM_HC], the assay gave 13 nM (6 of 6 replicates; controls 1 of 18).

5 of these entries, quoted again:

CDR-H1	CDR-H2	CDR-H3	group	Kd (apparent)	seen in	empty controls
GFELNDYGIS	VIYSDGRRTYYGDSVK	GRAAGTFDS	GP_HC	34 nM	6 of 6	0 of 18
GFTLNSYGIS	VIYSDGRRTEYGDSVK	GKAAGTFDS	Ctrl	80 nM	6 of 6	0 of 18
GFNLNSYGIS	VIYSDGRRTFYGDQVK	GRAAGTFDS	Ctrl	no signal	0 of 6	0 of 18
GFTLNSPGIS	VIYSDGRRTFYGDSVK	GRAAGTFDS	Ctrl	no signal	0 of 6	0 of 18
GFTLNDYGIS	VIYSDGRRTFYGDSVK	GQTAGTFDK	GP_Gibbs	2.7 nM	6 of 6	0 of 18

Where one sequence has several entries in the source, the replicates are pooled.
The authors' rule: three or more of the six replicates give a measured affinity, fewer mean a poor binder.
Of ten entries with the parent sequence, four were seen in most replicates (averages 2.2 nM to 240 nM), three in one and three in none, so single entries are noisy.
Three control strains display no target. For all heavy chain designs, 1% of the pairings with them gave a signal, with a median of 120 nM and one signal in twenty below 7.0 nM, so weak values seen in few replicates may be background. For each scFv, signals with the empty controls are counted beside the result.

The measurements come from Li et al. 2023 (doi:10.1038/s41467-023-39022-2) through the FLAb antibody collection.